Experiment: hydrodynamic (Stokes) radius / size of micelles and vesicles, inelastic light scattering
Format: physicochemical

Substance	<RH> hydrodynamic radius
2-Carboxamid-3-hexadecyl-1,4-pyridinium	220
2-carboxamid-3-dodecyl-1,4-pyridinium	750
